This is a selection; strong and weak results do not stand in their true shares. Some results for these compounds are left out of this collection, so the calls shown say nothing about other tests. Active and inactive are the calls of the source.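 How the source made its calls: active means GFP/RFP ratio change of at least 30% with cell ATP level not reduced by more than half and red fluorescence within 50% of control; inactive means the rest, inconclusive results apart.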

The test deals with Matrix metalloproteinase-14 (Homo sapiens) (UniProt P50281). The test can be described thus: MT1-MMP activation inhibitors, cellular reporter – HT1080 RFP-PRO-GFP cells, GFP/RFP fluorescence, primary screen (AID 651647). The note with it: overnight, at 20 µM, hits give high values, percent of plate control window, DMSO zero. Summed up: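 Material – HT1080 RFP-PRO-GFP cells · Control set – DMSO wells and RFP-L50D-GFP cells · Incubation – overnight cell settling, then overnight compound exposure, 37 °C, 5% CO2 · Compound dosing – single-point 20 µM compound, 1% DMSO · Read-out – GFP/RFP fluorescence ratio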
As for `COc1ccc(C(=O)NCC2(N(C)C)CCCCC2)cc1`, the GFP/RFP ratio change is inactive: -1.69%.

On to `CCN1CCCC(OC(=O)C2(O)c3ccccc3C=Cc3ccccc32)C1` (stereo unspecified), for which the GFP/RFP ratio change was inactive: -0.552%.

For `Cc1cc(C(=O)NCC2(N3CCCCC3)CCCCC2)ccc1[N+](=O)[O-]`, the GFP/RFP ratio change is inactive: 3.06%.

In the case of `O=C(NCC1(N2CCCCC2)CCCCC1)c1cccc(Br)c1`, the GFP/RFP ratio change was inactive: -1.22%.

Take `C=CCN1CCN(CCOC(=O)C(O)(c2ccccc2)c2ccccc2)CC1`: the GFP/RFP ratio change is inactive: 5.49%.

In the case of `O=C(NCC1(N2CCCCC2)CCCCC1)c1cc(F)c(F)cc1Cl`, the GFP/RFP ratio change is inactive: 0.109%.

As to `Cc1ccccc1C(=O)NCC1(N2CCCCC2)CCCCC1`, the GFP/RFP ratio change is inactive: 0.666%.

Consider `CN(C)c1ccc(C(=O)NCC2(N(C)C)CCCCC2)cc1`, for which the GFP/RFP ratio change is inactive: 0.0762%.

Take `CN(C)C1CCCC1OC(=O)C(O)(c1ccccc1)c1ccccc1` (stereo unspecified): the GFP/RFP ratio change was inactive: -0.888%.

As for `Cc1ccc(C(=O)NCC2(N3CCCCC3)CCCCC2)cc1`, the GFP/RFP ratio change is inactive: -1.66%.

For `CCN(CC)CC(C)C(C)OC(=O)C(O)(c1ccccc1)c1ccccc1` (stereo unspecified), the GFP/RFP ratio change was inactive: 0.641%.

In the case of `COc1cc(SC)ccc1C(=O)NCC1(N(C)C)CCCCC1`, the GFP/RFP ratio change was inactive: -1.54%.

On to `CC(C)N1C(=O)CC2(CCN(CCOC(=O)C(O)(c3ccccc3)c3ccccc3)CC2)C1=O`, for which the GFP/RFP ratio change is inactive: -3.16%.

In the case of `CN1[C@@H]2CC[C@H]1CC(OC(=O)C(O)(c1ccccc1)c1ccccc1)C2` (stereo partly specified), the GFP/RFP ratio change is inactive: -13.8%.

For `O=C(NCC1(N2CCCCC2)CCCCC1)c1cc([N+](=O)[O-])ccc1Cl`, the GFP/RFP ratio change was inactive: -10.6%.

On to `CC(C)Oc1ccc(C(=O)NCC2(N(C)C)CCCCC2)cc1`, for which the GFP/RFP ratio change was inactive: -2.74%.

As to `O=C(OCCN1CCCC1)C(O)(c1ccccc1)c1ccccc1`, the GFP/RFP ratio change was inactive: -1.09%.

For the compound `CN(C)c1cccc(C(=O)NCC2(N(C)C)CCCCC2)c1`, the GFP/RFP ratio change was inactive: 3.4%.

`C=C(C)C#CC(O)(C(=O)OC1CCN(C)CC1)c1ccccc1` (stereo unspecified): the GFP/RFP ratio change is inactive: 0.321%.

Turning to `COc1ccc(Br)c(C(=O)NCC2(N3CCCCC3)CCCCC2)c1`, the GFP/RFP ratio change was inactive: -3.49%.

Turning to `O=C(OC1CN2CCC1CC2)C(CO)(c1ccccc1)c1ccccc1` (stereo unspecified), the GFP/RFP ratio change is inactive: -23%.

As for `O=C(NCC1(N2CCCCC2)CCCCC1)c1cccc(Cl)c1`, the GFP/RFP ratio change is inactive: -0.532%.

On to `COc1cccc(C(=O)NCC2(N3CCCCC3)CCCCC2)c1`, for which the GFP/RFP ratio change was inactive: 0.748%.

Regarding `COc1ccc(Cl)cc1C(=O)NCC1(N(C)C)CCCCC1`, the GFP/RFP ratio change was inactive: -1.3%.

For the compound `COc1cc(C(=O)NCC2(N(C)C)CCCCC2)c([N+](=O)[O-])cc1OC`, the GFP/RFP ratio change is inactive: -2.69%.

As for `CN(C)C1(CNC(=O)c2ccc(Br)cc2)CCCCC1`, the GFP/RFP ratio change was inactive: 3.24%.

The record behind these values is PubChem BioAssay AID651647 (Sanford-Burnham Center for Chemical Genomics, 2012).
